Reference: patent publication US7427627B2, “N-(4-(4-methylthiazol-5-yl) pyrimidin-2-yl)-N-phenylamines as antiproliferative compounds” (Cyclacel Limited, priority 2001, dated 2008)

Target: T1, CDK2/cyclin E (Homo sapiens, UniProt P24941)
T1 construct: His6
Assay: Kinase assay CDK2/cyclin E
Format: biochemical
Conditions: Table 1; read-out: Kinase inhibition, IC50 (μM) CDK2/E

IC50: 0.12 µM
Compound: Cc1nc(N(C)C)sc1-c1ccnc(Nc2cccc([N+](=O)[O-])c2)n1 [Compound 52, [4-(2-Dimethylamino-4-methyl-thiazol-5-yl)-pyrimidin-2-yl]-(3-nitro-phenyl)-amine]
